Experimental data published in patent EP4834881A1, “QUINOLONE COMPOUNDS AND USE THEREOF” (dated 2026).
Values belong to the compound of their own block, whether it stands above or below them.

Chains of the proteins cited; added tags and fusions are not shown.
UniProt Q96LB1, whole entry: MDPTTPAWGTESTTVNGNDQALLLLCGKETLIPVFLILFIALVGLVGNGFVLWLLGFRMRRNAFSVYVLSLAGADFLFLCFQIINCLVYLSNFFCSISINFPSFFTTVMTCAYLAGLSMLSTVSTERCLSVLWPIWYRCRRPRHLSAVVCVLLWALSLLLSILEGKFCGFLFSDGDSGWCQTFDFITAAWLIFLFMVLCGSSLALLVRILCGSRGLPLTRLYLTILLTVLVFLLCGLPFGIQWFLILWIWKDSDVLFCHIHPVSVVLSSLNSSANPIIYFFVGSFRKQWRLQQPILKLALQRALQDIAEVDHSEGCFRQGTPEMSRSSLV

Assays:
BALB/c mice [1] = assay: Allergic rhinitis model: IgE assay (ELISA) in peripheral blood, nasal lavage fluid and tracheal tissue; conditions: mean ± spread; for Peripheral Blood IgE Concentration: serum
Description: (§1) Experimental animals: BALB/c mice, from Guangdong Vital River Laboratory Animal Technology Co., Ltd.
(§2) Modeling was initiated on the day of grouping, which was designated as M1. Except for the normal group, mice in all modeling groups were intraperitoneally injected with a sensitization solution of (250 µg OVA (Ovalbumin) (Supplier: Shanghai Macklin, Lot No.: C16255388) mixed with 5 mg aluminum hydroxide/mL) per mouse, while the normal control group was given an equal volume of sterile PBS solution. The injection cycle was M1, M7, and M14. Starting from M21, challenge was carried out by nasal instillation once daily for 7 consecutive days. The challenge solution was a 50 mg/mL OVA solution, and a volume of 10 µL was instilled into each nostril per time. The normal control group was not subjected to nasal instillation.
(§3) Administration was initiated on the day of the challenge by nasal instillation, which was designated as D1, and was performed once daily for 7 consecutive days. The normal control group and the model control group were administered with vehicle alone under the same conditions:
Prior to necropsy, blood was collected from the eyeball. The collected mouse blood was then centrifuged at 1800 r/min at 4 °C for 15 min, and the supernatant serum was aliquoted and stored at -80 °C for testing. At the same time, nasal lavage fluid and tracheal tissues were collected. The IgE levels in the above three samples was detected using an ELISA method (Supplier: Shanghai Enzyme-linked Biotechnology Co., Ltd., Lot No.: ml1037602).

human MRGPRX2 = human MRGPRX2 (Homo sapiens, UniProt Q96LB1); assay: In vitro target binding assay: BRET between MRGPRX2-Nluc and Venus-β-arrestin1 in transfected HEK-293T cells, antagonist mode against agonist R-ZINC-3573 (EC80); conditions: antagonism of agonist R-ZINC-3573 at EC80, net BRET
Text: Bioluminescence Resonance Energy Transfer (BRET) is an important biophysical technique for monitoring molecular interactions, and has been widely used to study protein-protein interactions in living cells. This technique requires the relevant proteins to be linked to an energy donor (such as luciferase) and an acceptor (such as a fluorescent protein). When a relevant drug molecule interacts with the protein, the protein structure alters, causing a change in the distance between the energy donor and the energy acceptor. The luminescence energy induced by the chemical reaction is transferred to the corresponding acceptor, resulting in increased acceptor emission, and generating a BRET signal. In this work, a DNA-synthesized target human MRGPRX2 and a donor luciferase Nluc (NanoLuc®Promega) (Supplier: Beijing Tsingke, Lot No.: SZ0171228-1), as well as an acceptor fluorescent protein Venus and the relevant test protein, namely human β-arrestin1 (ARRB1) (Supplier: Guangzhou Dahong Biotechnology, Lot No. HY22694-4396), were utilized, and were inserted into the eukaryotic expression vector plasmid pcDNA3.1(+) (Supplier: Qiyun Bio, Lot No.: QY2310) as fusion genes via a Linker sequence (GGSG). The cell line selected for the experiment was human embryonic kidney cells HEK-293T. The human embryonic kidney cell line HEK-293T was routinely cultured in 10 cm cell culture dishes using complete culture medium consisting of high-glucose DMEM medium supplemented with 10% (V/V) fetal bovine serum. Cells were seeded at 2×10^6 cells/10 cm dish on the first day of culture, and passaged every 72 h with the same number of cells. One day prior to transfection, cells were resuspended, counted, and seeded at a density of 2×10^6 cells/6 cm dish or 4×10^6 cells/10 cm dish. Transfection was carried out 16-24 h after seeding. Plasmids constructed with the fusion protein gene were transfected into the expression cell line, and the transfected cells were cultured under appropriate conditions for a period of time to allow sufficient expression of the fusion proteins. Transfection was performed by encapsulating plasmid DNA with PEI reagent, and the encapsulation process should to be carried out in Opti-MEM medium. The ratio of plasmid, PEI (Supplier: Yeasen Biotechnology, Lot No.: WP5430010), and Opti-MEM (Supplier: Gibco, Lot No.: 2883564) was 1:4:14 (W: W: V). The encapsulated plasmid was added to an appropriate amount of complete culture medium, amd gently mixed, which was then used to replace the existing culture medium of the previously plated cells. Cells were harvested 24 h after transfection. Subsequently, cells were resuspended using HBSS (Source: Biosharp, Lot No.: 24179687) and counted with a cell counter. The cells were diluted to a density of (3~5) ×10^5 cells/mL, and then seeded into a flat-bottom white 96-well microplate at 100 µ L/well, resulting in (3~5) ×10^4 cells per well. In each well, 10 µ L of antagonist compounds diluted with HBSS a different concentrations were added firstly, then the agonist compound at a specific concentration (EC80) was added. After reacting for 2 min, the substrate Furimazine (Supplier: TargetMol, Lot No.: 362434) at a final concentration of 10 µM was added. After reacting for another 2 min, the 96-well plate was placed in a PHERAstar FSX microplate reader (Supplier: BMG Labtech) to simultaneously measure the readings at wavelengths of 440 nm and 530 nm. Based on the fluorescence readings at 440 nm and 530 nm, the Ratio and net BRET were calculated. Ratio = Em530 nm / Em440 nm, and net BRET = Ratio co-transfection - Ratio single-transfection. The calculated net BRET values were inputted into GraphPad Prism 9, and curve fitting via nonlinear regression (four-parameter equation) and IC50 calculation were performed.

C57BL/6 mice = assay: Inflammatory bowel disease model: 3% DSS drinking water, DAI score; conditions: mean ± SEM
Description: Experimental animals: C57BL/6 mice, from Guangdong Vital River Laboratory Animal Technology Co., Ltd.
C57BL/6 mice were used. 3% DSS (Dextran Sulfate Sodium) (Supplier: MPBIO, Lot No.: YD11024) in water was prepared as drinking water for the mice.
During the experiment, the animals were weighed at a fixed time daily, and their status (including feces, mortality) was observed. The efficacy was evaluated by the DAI score. The details of the DAI scoring criteria are as follows: 0 point for normal stool, 1 point for soft but formed stool, 2 points for soft stool, 3 points for soft and wet stool, 4 points for loose stool; 0-1 point for no occult blood, 2 points for occult blood positive, 3 points for visible blood in stool, 4 points for severe fecal blood; 0 point for no weight loss or weight gain, 1 point for weight loss of 1%-5%, 2 points for weight loss of 6%-10%, 3 points for weight loss of 11%-15%, 4 points for weight loss > 15%. The sum of the scores for 3 items is the total DAI score, and the weighing and scoring were carried out every other day. […] The DAI scores are shown in Table 5, and the data are presented as mean + standard error of the mean (SEM): Table 5

BALB/c mice [2] = assay: Allergic rhinitis model: OVA sensitization and nasal challenge, number of sneezes; conditions: 5mg/kg p.o. once daily, within 10 min after the nasal challenge
Description: as §1, §2, §3
The number of sneezes in each group was recorded within 10 min after the nasal challenge every day during the administration period.

BALB/c mice [3] = assay: Atopic dermatitis model: MC903 (calcipotriol) on right ear, ear thickness; conditions: 50 mg/kg BID p.o., mean ± SEM
Description: as §1
MC903 (calcipotriol) (Supplier: TargetMol, Lot No.: 235760) was applied to the right ear of mice, once a day, for 14 consecutive days.
The animals were randomly divided into 6 groups before induction on D1. The model control group was administered with vehicle alone under the same conditions. Administration was carried out according to the following groups:
During the experiment period, the thickness of the right ear of the mice was measured. […] The data are presented as mean ± standard error of the mean (SEM).

SMILES: O=C(O)c1cn(C2CC2)c2cc(-c3ccc(S(=O)(=O)NCCCC(F)(F)F)cc3)c(F)cc2c1=O
Nasal Lavage Fluid IgE Concentration (BALB/c mice [1]): 10.2 ± 2.3 ng/mL
Peripheral Blood IgE Concentration (BALB/c mice [1]): 9.8 ± 1.9 ng/mL
Tracheal Tissue IgE Concentration (BALB/c mice [1]): 10.3 ± 4.4 ng/mL

IC50 (human MRGPRX2): 1 to 10 µM
SMILES: NC(=O)c1cc(-c2cc3c(cc2F)c(=O)c(C(=O)O)cn3C2CC2)ccn1

IC50 (human MRGPRX2): 1 to 10 µM
SMILES: COc1c(-c2ccc(S(=O)(=O)N3CCCCC3)cc2)c(F)cc2c(=O)c(C(=O)O)cn(C3CC3)c12
DAI score (C57BL/6 mice; D1, 20mg/kg QD p.o.): 0.00±0.00
DAI score (C57BL/6 mice; D2, 20mg/kg QD p.o.): 0.9±1.0
DAI score (C57BL/6 mice; D3, 20mg/kg QD p.o.): 2.0±1.2
DAI score (C57BL/6 mice; D4, 20mg/kg QD p.o.): 2.8±1.8
DAI score (C57BL/6 mice; D5, 20mg/kg QD p.o.): 3.3±1.2
DAI score (C57BL/6 mice; D6, 20mg/kg QD p.o.): 5.2±1.6
DAI score (C57BL/6 mice; D7, 20mg/kg QD p.o.): 6 ··
number of sneezes (BALB/c mice [2]; D1): 2.5 number of sneezes/mouse
number of sneezes (BALB/c mice [2]; D2): 3.3 number of sneezes/mouse
number of sneezes (BALB/c mice [2]; D3): 10.2 number of sneezes/mouse
number of sneezes (BALB/c mice [2]; D4): 14.5 number of sneezes/mouse
number of sneezes (BALB/c mice [2]; D5): 11.3 number of sneezes/mouse
number of sneezes (BALB/c mice [2]; D6): 15.8 number of sneezes/mouse
number of sneezes (BALB/c mice [2]; D7): 13.2 number of sneezes/mouse
Nasal Lavage Fluid IgE Concentration (BALB/c mice [1]): 9.6 ± 3.8 ng/mL
Peripheral Blood IgE Concentration (BALB/c mice [1]): 9.6 ± 2.2 ng/mL
Tracheal Tissue IgE Concentration (BALB/c mice [1]): 10.9 ± 4.9 ng/mL

IC50 (human MRGPRX2): 10 to 80 µM
SMILES: COc1cc(-c2c(F)cc3c(=O)c(C(=O)O)cn(C4CC4)c3c2OC)ccc1NC(C)=O

IC50 (human MRGPRX2): 1 to 10 µM
SMILES: CCCNC(=O)c1cc(-c2cc3c(cc2F)c(=O)c(C(=O)O)cn3C2CC2)ccn1
number of sneezes (BALB/c mice [2]; D1): 1.5 number of sneezes/mouse
number of sneezes (BALB/c mice [2]; D2): 3.7 number of sneezes/mouse
number of sneezes (BALB/c mice [2]; D3): 15.2 number of sneezes/mouse
number of sneezes (BALB/c mice [2]; D4): 12.5 number of sneezes/mouse
number of sneezes (BALB/c mice [2]; D5): 10.8 number of sneezes/mouse
number of sneezes (BALB/c mice [2]; D6): 13.0 number of sneezes/mouse
number of sneezes (BALB/c mice [2]; D7): 15.2 number of sneezes/mouse
Right Ear Thickness of Mice (BALB/c mice [3]; D2): 0.19±0.04 mm
Right Ear Thickness of Mice (BALB/c mice [3]; D4): 0.28 ± 0.02 mm
Right Ear Thickness of Mice (BALB/c mice [3]; D6): 0.42 ± 0.04 mm
Right Ear Thickness of Mice (BALB/c mice [3]; D8): 0.50 ± 0.04 mm
Right Ear Thickness of Mice (BALB/c mice [3]; D10): 0.52 ± 0.04 mm
Right Ear Thickness of Mice (BALB/c mice [3]; D12): 0.60 ± 0.04 mm
Right Ear Thickness of Mice (BALB/c mice [3]; D14): 0.58 ± 0.02 mm

IC50 (human MRGPRX2): 0.1 to 1 µM
SMILES: CCCCCCCNS(=O)(=O)c1ccc(-c2cc3c(cc2F)c(=O)c(C(=O)O)cn3C2CC2)cn1

IC50 (human MRGPRX2): 0.1 to 1 µM
SMILES: CCCCCCCNS(=O)(=O)c1ccc(-c2c(F)cc3c(=O)c(C(=O)O)cn(C4CC4)c3c2OC)cc1

IC50 (human MRGPRX2): 10 to 80 µM
SMILES: COc1c(-c2ccc(SCCO)cc2)c(F)cc2c(=O)c(C(=O)O)cn(C3CC3)c12

IC50 (human MRGPRX2): 10 to 80 µM
SMILES: NCCCCCCNS(=O)(=O)c1ccc(-c2cc3c(cc2F)c(=O)c(C(=O)O)cn3C2CC2)cc1

SMILES: CCCCCNS(=O)(=O)c1ccc(-c2cc3c(cc2F)c(=O)c(C(=O)OC)cn3C2CC2)cn1
Nasal Lavage Fluid IgE Concentration (BALB/c mice [1]): 10.6 ± 1.8 ng/mL
Peripheral Blood IgE Concentration (BALB/c mice [1]): 9.7 ± 2.9 ng/mL
Tracheal Tissue IgE Concentration (BALB/c mice [1]): 9.6 ± 4.2 ng/mL

IC50 (human MRGPRX2): 1 to 10 µM
SMILES: CCCNS(=O)(=O)c1ccc(-c2c(F)cc3c(=O)c(C(=O)O)cn(C4CC4)c3c2Cl)cn1

SMILES: CCCCCCCNS(=O)(=O)c1ccc(-c2c(F)cc3c(=O)c(C(=O)O)cn(C4CC4)c3c2OC)nc1
Nasal Lavage Fluid IgE Concentration (BALB/c mice [1]): 10.3 ± 1.5 ng/mL
Peripheral Blood IgE Concentration (BALB/c mice [1]): 9.6 ± 2.2 ng/mL
Tracheal Tissue IgE Concentration (BALB/c mice [1]): 10.0 ± 5.3 ng/mL

IC50 (human MRGPRX2): 1 to 10 µM
SMILES: COc1c(-c2ccc(S(=O)(=O)NC3CCCCC3)c(C#N)c2)c(F)cc2c(=O)c(C(=O)O)cn(C3CC3)c12

IC50 (human MRGPRX2): 10 to 80 µM
SMILES: COc1c(-c2ccc(S(=O)(=O)NCCCl)cc2)c(F)cc2c(=O)c(C(=O)O)cn(C3CC3)c12

IC50 (human MRGPRX2): 1 to 10 µM
SMILES: NC(=O)c1cc(-c2nc3c(cc2F)c(=O)c(C(=O)O)cn3C2CC2)ccn1
